Assay results taken from patent US12186354B2, “Lespedeza capitata extract for use in the field of hair care” (priority 2018, dated 2025).

Test system: JAK1/2-STAT3 pathway
Assay: IL-6-induced STAT3 phosphorylation in follicular keratinocytes of the outer root sheath (ORS)
Assay type: cell-based, human
Details: 5 μM, 1 h pre-treatment, IL-6 100 ng/ml 15 minutes
Excerpt: The goal of this example is to confirm the inhibitor activity of an extract of Lespedeza capitata on the JAK-STAT signalling pathway in a cell model, follicular keratinocytes of the outer epithelial sheath of the hair follicle (outer root sheath (ORS) model). In this model, interleukin IL-6 is used to activate the JAK1/2-STAT3 pathway by activation of IL-6 and GP130 receptors which are both expressed in this hair follicle epithelial sheath. II-6 is a cytokine that acts as a hair growth cycle inhibitor. Its overexpression in a transgenic mouse model leads to delayed hair growth. Moreover, in androgenetic alopecia, IL-6 would be overexpressed in dermal papilla cells under the influence of androgens (Kwack et al., 2012, J Invest Dermatology 132(1): 43-9). It has also been reported that IL-6 delays hair follicle growth in humans.
The study is performed on follicular keratinocytes of the outer epithelial sheath of the hair follicle (outer root sheath (ORS) model). The keratinocytes are cultured in 96-well plates in an appropriate medium (CnT-PR from CelINTech). Twenty-four hours later, the cells are washed with an alkaline phosphate buffer (PBS) and the medium is exchanged for CnT-PR-H (standard maintenance medium for primary human keratinocytes). […]. The Lespedeza capitata tested is an extract prepared according to Example 5 of the present invention. […]

## C[C@@H]1CCN(C(=O)CC#N)C[C@@H]1N(C)c1ncnc2[nH]ccc12 [Tofacitinib, tofacitinib]
  % of STAT phosphorylated, Mean: 99%
